Source: US10442819B2, “Tricyclic compounds as inhibitors of mutant IDH enzymes” (Merck Sharp & Dohme Corp., priority 2014, dated 2019)
Where two headings read alike, the source gives them in different places.

By UniProt entry, the sequences of proteins in these tests, tags left out.
UniProt O75874, whole entry R132H: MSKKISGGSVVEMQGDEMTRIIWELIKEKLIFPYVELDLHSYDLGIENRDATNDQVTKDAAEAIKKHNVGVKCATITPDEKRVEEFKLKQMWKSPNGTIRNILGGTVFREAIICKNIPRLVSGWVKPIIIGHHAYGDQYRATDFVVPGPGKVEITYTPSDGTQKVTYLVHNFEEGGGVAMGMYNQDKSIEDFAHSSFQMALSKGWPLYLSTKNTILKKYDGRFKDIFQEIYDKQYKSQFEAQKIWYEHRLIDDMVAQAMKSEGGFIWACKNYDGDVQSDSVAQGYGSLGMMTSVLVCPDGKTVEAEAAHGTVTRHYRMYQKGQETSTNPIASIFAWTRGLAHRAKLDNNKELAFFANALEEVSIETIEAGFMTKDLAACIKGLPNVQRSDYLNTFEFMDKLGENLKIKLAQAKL

Molecular target: R132H mutant IDH1 enzyme (Homo sapiens (Human), UniProt O75874, R132H)
Test: R132H IDH1 Enzymatic Assay
Type: biochemical
Conditions: R132H mutant IDH1 enzyme 1.5 nM final
[1] = luminescence readout, read-out: IC50

| IC50 [1] [nM] | IC50 (Kinase-GLO luminescence, 10-point, 3-fold dilution series, read-out: IDH1 R132H IC50) [nM] | Structure (SMILES) |
| --- | --- | --- |
| 13 |  | CC(C)O[C@H]1CC[C@H](C(=O)N2Cc3cccnc3Nc3ccc(C4CCOCC4)cc32)CC1 [Example 351, 6-{[Trans-4-(1-methylethoxy)cyclohexyl]carbonyl}-8-(tetrahydro-2H-pyran-4-yl)-6,11-dihydro-5H-pyrido[2,3-b][1,5]benzodiazepine] |
| 45 |  | CN(C(C1CC1)C(F)(F)F)[C@H]1CC[C@H](C(=O)N2Cc3cccnc3Nc3ccc(N4CCOCC4)cc32)CC1 (stereo partly drawn) [Example 447, trans-N-[1-cyclopropyl-2,2,2-trifluoroethyl]-N-methyl-4-[(8-morpholin-4-yl-5,11-dihydro-6H-pyrido[2,3-b][1,5]benzodiazepin-6-yl)carbonyl]cyclohexanamine] |
| 332 |  | CO[C@H]1CN(c2ccc3c(c2)N(C(=O)[C@H]2CC[C@H](OC)CC2)Cc2cccnc2N3)CC[C@H]1F (single isomer, unassigned) [Example 216] |
| 843 |  | O=C([C@H]1CC[C@H](N2C[C@H](F)[C@@H](F)C2)CC1)N1Cc2cccnc2Nc2ccc(N3CCOCC3)cc21 [Example 479, 6-({trans-4-[(3S,4S)-3,4-difluoropyrrolidin-1-yl]cyclohexyl}carbonyl)-8-morpholin-4-yl-6,11-dihydro-5H-pyrido[2,3-b][1,5]benzodiazepine] |
| 104 |  | COC1CCC(C(=O)N2Cc3cccnc3Nc3ccc(CCC(C)(C)C)cc32)CC1 (stereo not shown) [Example 422, 8-(3,3-dimethylbutyl)-6-[(4-methoxycyclohexyl)carbonyl]-6,11-dihydro-5H-pyrido[2,3-b][1,5]benzodiazepine] |
| 577 |  | CO[C@H]1CC[C@H](C(=O)N2Cc3cccnc3Nc3ccc(N4CC5(CC(OC(C)C)C5)C4)cc32)CC1 [Example 412, 6-[(trans-4-methoxycyclohexyl)carbonyl]-8-[6-(1-methylethoxy)-2-azaspiro[3.3]hept-2-yl]-6,11-dihydro-5H-pyrido[2,3-b][1,5]benzodiazepine] |
| 463 |  | C=CC(=O)N1CCN(c2ccc3c(c2)N(C(=O)C2CC(C)(C)C2)Cc2cccnc2N3)CC1 [Example 500, 8-(4-acryloylpiperazin-1-yl)-6-[(3,3-dimethylcyclobutyl)carbonyl]-6,11-dihydro-5H-pyrido[2,3-b][1,5]benzodiazepine] |
| 76 |  | CO[C@H]1CCN(c2ccc3c(c2)N(C(=O)[C@H]2CC[C@H](OC(C)C)CO2)Cc2cccnc2N3)[C@H](C)C1 (single isomer, unassigned) [Example 43] |
|  | 485 | CC1(C)CC(C(=O)N2Cc3cccnc3Nc3ccc(N4CCC45CN(C(=O)OC(C)(C)C)C5)cc32)C1 [tert-butyl 1-{6-[(3,3-dimethylcyclobutyl)carbonyl]-6,11-dihydro-5H-pyrido[2,3-b][1,5]benzodiazepin-8-yl}-1,6-diazaspiro[3.3]heptane-6-carboxylate] |
| 73 |  | CO[C@H]1CC[C@H](C(=O)N2Cc3cccnc3Nc3ccc(-c4cnc5c(c4)OCCN5C)cc32)CC1 [Example 402, 6-[(trans-4-methoxycyclohexyl)carbonyl]-8-(4-methyl-3,4-dihydro-2H-pyrido[3,2-b][1,4]oxazin-7-yl)-6,11-dihydro-5H-pyrido[2,3-b][1,5]benzodiazepine] |
| 287 |  | O=C([C@H]1CC[C@@H](OC2CCOC2)CC1)N1Cc2cccnc2Nc2ccc(C3CCOCC3)cc21 (stereo partly drawn) [Example 399, 6-({cis-4-[tetrahydrofuran-3-yloxy]cyclohexyl}carbonyl)-8-(tetrahydro-2H-pyran-4-yl)-6,11-dihydro-5H-pyrido[2,3-b][1,5]benzodiazepine] |
| 568 |  | O=C([C@H]1CC[C@H](N2CC(F)(F)C2)C1)N1Cc2cccnc2Nc2ccc(N3CCOCC3)cc21 (single isomer, unassigned) [Example 481] |
| 52 |  | CO[C@H]1CC[C@H](C(=O)N2Cc3cccnc3Nc3ccc(S(=O)(=O)c4ccc(F)cc4)cc32)CC1 [Example 432, 8-[(4-fluorophenyl)sulfonyl]-6-[(trans-4-methoxycyclohexyl)carbonyl]-6,11-dihydro-5H-pyrido[2,3-b][1,5]benzodiazepine] |
| 17 |  | CC(C)O[C@H]1CC[C@H](C(=O)N2Cc3cccnc3Nc3ccc(C4CCC(C)O4)cc32)OC1 (stereo partly drawn) [Example 533, ((2R,5S)-5-isopropoxytetrahydro-2H-pyran-2-yl)(8-(5-methyltetrahydrofuran-2-yl)-5,11-dihydro-6H-benzo[b]pyrido[2,3-e][1,4]diazepin-6-yl)methanone] |
| 52 |  | CC(C)OCc1ccc2c(c1)N(C(=O)[C@H]1CC[C@H](OC(C)C)CO1)Cc1cccnc1N2 [Example 17, (8-(isopropoxymethyl)-5,11-dihydro-6H-benzo[b]pyrido[2,3-e][1,4]diazepin-6-yl)((2R,5S)-5-isopropoxytetrahydro-2H-pyran-2-yl)methanone] |
| 82 |  | CO[C@@H]1[C@H](C)C[C@H](C(=O)N2Cc3cccnc3Nc3ccc(N4CCOCC4)cc32)C[C@@H]1C [Example 129, 6-{[(1r,3R,4s,5S)-4-methoxy-3,5-dimethylcyclohexyl]car-bonyl}-8-morpholin-4-yl-6,11-dihydro-5H-pyrido[2,3-b][1,5]benzodiazepine] |
| 123 |  | CN(C(C1CC1)C(F)(F)F)[C@H]1CC[C@@H](C(=O)N2Cc3cccnc3Nc3ccc(N4CCOCC4)cc32)CC1 (stereo partly drawn) [Example 448, cis-N-[1-cyclopropyl-2,2,2-trifluoroethyl]-N-methyl-4-[(8-morpholin-4-yl-5,11-dihydro-6H-pyrido[2,3-b][1,5]benzodiazepin-6-yl)carbonyl]cyclohexanamine] |
| 153 |  | COC[C@@H]1CCCN1c1ccc2c(c1)N(C(=O)[C@H]1CC[C@H](OC)CC1)Cc1cccnc1N2 [Example 260, 6-[(trans-4-methoxycyclohexyl)carbonyl]-8-[(2S)-2-(methoxymethyl)pyrrolidin-1-yl]-6,11-dihydro-5H-pyrido[2,3-b][1,5]benzodiazepine] |
| 90 |  | CO[C@H]1CC[C@H](C(=O)N2Cc3cccnc3Nc3ccc(C4=CCOCC4)cc32)CC1 [Example 514, 8-(3,6-Dihydro-2H-pyran-4-yl)-6-[(trans-4-methoxycyclohexyl)carbonyl]-6,11-dihydro-5H-pyrido[2,3-b][1,5]benzodiazepine] |
| 123 |  | O=C(N1CCC(NC2(C(F)(F)F)CC2)CC1)N1Cc2cccnc2Nc2ccc(N3C[C@@H]4C[C@H]3CO4)cc21 [Example 483, 1-({8-[(1S,4S)-2-oxa-5-azabicydo[2.2.1]hept-5-yl]-5,11-dihydro-6H-pyrido[2,3-b][1,5]benzodiazepin-6-yl}carbonyl)-N-[1-(trifluoromethyl)cyclopropyl]-piperidin-4-amine] |
| 374 |  | CCN(c1ccc2c(c1)N(C(=O)[C@H]1CC[C@H](OC)CC1)Cc1cccnc1N2)C1COC1 [Example 250, N-ethyl-6-[(trans-4-methoxycyclohexyl)carbonyl]-N-oxetan-3-yl-6,11-dihydro-5H-pyrido[2,3-b][1,5]benzodiazepin-8-amine] |
| 582 |  | COC1CCC(C(=O)N2Cc3cccnc3Nc3ccc(CCC(=O)N4CCOCC4)cc32)CC1 (stereo not shown) [Example 421, 6-[(4-methoxycyclohexyl)carbonyl]-8-(3-morpholin-4-yl-3-oxopropyl)-6,11-dihydro-5H-pyrido[2,3-b][1,5]benzodiazepine] |
| 53 |  | CC(C)C1CCC(C(=O)N2Cc3cccnc3Nc3ccccc32)CC1 (stereo not shown) [Example 68, 6-{[4-(1-methylethyl)cyclohexyl]carbonyl}-6,11-dihydro-5H-pyrido[2,3-b][1,5]benzodiazepine] |
| 8 |  | O=C(C1CCN(CC(F)(F)F)CC1)N1Cc2cccnc2Nc2ccc(C3=CCOCC3)cc21 [Example 516, 8-(3,6-dihydro-2H-pyran-4-yl)-6-{[1-(2,2,2-trifluoroethyl}piperidin-4-yl]carbonyl}-6,11-dihydro-5H-pyrido[2,3-b][1,5]benzodiazepine] |
| 286 |  | O=C(C1CC(Oc2ccccc2)C1)N1Cc2cccnc2Nc2ccccc21 (stereo not shown) [Example 55, 6-[(3-phenoxycyclobutyl)car-bonyl]-6,11-dihydro-5H-pyrido[2,3-b][1,5]benzodiazepine] |
| 5 |  | CC(C)O[C@H]1CC[C@H](C(=O)N2Cc3cccnc3Nc3ccc([C@H]4COC[C@@H]4C)cc32)OC1 [Example 538, ((2R,5S)-5-isopropoxytetrahydro-2H-pyran-2-yl)(8-((3S,4R)-4-methyltetrahydrofuran-3-yl)-5,11-dihydro-6H-benzo[b]pyrido[2,3-e][1,4]diazepin-6-yl)methanone] |
| 126 |  | O=C([C@H]1CC[C@@H](OC2CC2)CC1)N1Cc2cccnc2Nc2ccc(N3CCOCC3)cc21 [Example 91, 6-{[cis-4-(cyclopropyloxy)cyclo-hexyl]carbonyl}-8-morpholin-4-yl-6,11-dihydro-5H-pyrido[2,3-b][1,5]benzodiazepine] |
| 75 |  | COC1CCC(C(=O)N2Cc3cccnc3Nc3ccc(CCC(C)(C)C)cc32)CC1 (stereo not shown) [Example 428, 8-(3,3-dimethylbutyl)-6-[(4-methoxycyclohexyl)carbonyl]-6,11-dihydro-5H-pyrido[2,3-b][1,5]benzodiazepine] |
| 59 |  | COC1CCC(C(=O)N2Cc3cccnc3Nc3ccc(C[C@H]4CCOC4)cc32)CC1 (single isomer, unassigned) [Example 426] |

| Structure (SMILES) | IC50 [1] [nM] | IC50 (Kinase-GLO luminescence, 10-point, 3-fold dilution series, read-out: IDH1 R132H IC50) [nM] |
| --- | --- | --- |
| COC1CC2COCC(C1)N2c1ccc2c(c1)N(C(=O)[C@H]1CC[C@H](OC(C)C)CC1)Cc1cccnc1N2 (stereo partly drawn) [Example 326, 8-(7-methoxy-3-oxa-9-azabicyclo[3.3.1]non-9-yl)-6-{[trans-4-(1-methylethoxy)cyclohexyl]car-bonyl}-6,11-dihydro-5H-pyrido[2,3-b][1,5]benzodiazepine] | 14 |  |
| CC(C)O[C@H]1CC[C@H](C(=O)N2Cc3cccnc3Nc3ccc(N4C[C@]5(C)C[C@H]4CO5)cc32)CC1 (relative stereo) [Example 349, 6-{[trans-4-(1-methylethoxy)cyclohexyl]car-bonyl}-8-[(1S,4S)-1-methyl-2-oxa-5-azabicyclo[2.2.1]hept-5-yl]-6,11-dihydro-5H-pyrido[2,3-b][1,5]benzodiazepine] | 17 |  |
